## Antibody variant affinities, Ab-14 heavy chain, assay 1

Target: peptide PDVDLGDISGINAS, taken from heptad repeat 2 (HR2) of SARS-CoV-2 spike.

The variants keep the light chain, the linker and the frameworks of Ab-14 (scFv order VH, the linker GGGGSGGGGSGGGGS, VL).
VH: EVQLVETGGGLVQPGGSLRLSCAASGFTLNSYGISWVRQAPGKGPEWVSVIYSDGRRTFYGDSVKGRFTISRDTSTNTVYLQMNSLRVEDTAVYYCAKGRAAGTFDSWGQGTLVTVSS
VL: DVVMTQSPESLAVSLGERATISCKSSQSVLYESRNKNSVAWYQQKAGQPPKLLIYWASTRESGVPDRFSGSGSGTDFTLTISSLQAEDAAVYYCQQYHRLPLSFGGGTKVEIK

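The starting antibody came from a phage panning campaign against this peptide. Variants in AAYL49 differ from the parent at up to three CDR positions; double and triple changes were sampled at random. The assay is AlphaSeq: two haploid yeast populations carry antibody and antigen on their surface. Binding brings cells together so that they mate, and sequencing counts the barcode pairs among the diploids. The ratio of observed to expected reads was calibrated, replicate by replicate, on BCL2-family standards whose Kd was known from biolayer interferometry. The assay was run in three technical replicates.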

Variants are written as CDR1, CDR2 and CDR3 of the heavy chain (limits as in the source). Parent: GFTLNSYGIS, VIYSDGRRTFYGDSVK, GRAAGTFDS. Values are log10 of the apparent Kd in nM; lower means stronger binding. A pair that was not seen in that replicate is written "nd"; this usually means weak binding, but a binder can also be missed.

| CDR-H1 | CDR-H2 | CDR-H3 | replicates, log10 nM | control signals |
|---|---|---|---|---|
| GFTLNSYGIS | VIRSDGRRTFYCDSVK | GRAAGTFDH | nd / 4.53 / nd | 2 of 9 (3.84) |
| GFWLNSYGIS | VIYSDGRRTFYGDSVF | GEAAGTFDS | 2.61 / 2.79 / 3.44 | 0 of 9 |
| GFTLNSYGIS | VNYSDGRRTFYGDSVC | GRCAGTFDS | nd / nd / nd | 3 of 9 (4.05) |
| GFILNSYGIY | VIYSDGRNTFYGDSVK | GRAAGTFDS | 4.22 / nd / nd | 0 of 9 |
| GFTLNSYGIS | VIYSDGRRYFYGDSVK | GRAANTFDY | nd / 3.70 / nd | 1 of 9 (4.98) |
| GFTLNSYGIS | VIYSDGERTFYGDSVK | GRAAGLFDS | 0.64 / 0.75 / 0.60 | 1 of 9 (3.70) |
| GFWLNSGGIS | VIYSDGRRTFYGDSVK | GRNAGTFDS | nd / nd / 4.14 | 1 of 9 (3.28) |
| GFTLNSYGIS | VIYSDGRRTFYGDNAK | GRARGTFDS | nd / nd / nd | 0 of 9 |
| GWTLNSYGIS | VIPSDDRRTFYGDSVK | GRAAGTFDS | nd / nd / nd | 4 of 9 (4.05) |
| GFTLNSYGIS | VIYSDGRRTFYGDSVK | GQAAGTFAS | 1.74 / 1.71 / 2.02 | 3 of 9 (3.76) |
| GFTLFAYGIS | VIYSDGRRTFYGDFVK | GRAAGTFDS | nd / 2.99 / nd | 0 of 9 |
| GFTLNSGGIS | VIYSDGRFWFYGDSVK | GRAAGTFDS | nd / 4.69 / 5.69 | 3 of 9 (4.61) |
| GFTLNSYGIT | VIYSDGRRTFYGDSVY | GRAAGTFDI | nd / nd / nd | 1 of 9 (2.76) |
| GFTLNSYGIS | VIYSDGRRTFYWDSVG | GWAAGTFDS | nd / nd / nd | 4 of 9 (3.67) |
| GFNLNSYGIS | VIYSDGRRTFYGDSVK | GRASGTFDS | 0.81 / 1.22 / 0.95 | 4 of 9 (4.64) |
| GFTLNPYGIS | VITSDGRRTFYFDSVK | GRAAGTFDS | nd / nd / 3.28 | 2 of 9 (3.12) |
| GFTLLSYGIS | GIYSDGRRTFYGDSVK | GRAAGTMDS | nd / nd / nd | 2 of 9 (4.02) |
| GFTLNSYCIS | VIYSDGRRTFYGDSVK | GRAAGTYCS | nd / nd / nd | 5 of 9 (3.91) |
| GFTLNSYAIH | VIYSDFRRTFYGDSVK | GRAAGTFDS | nd / nd / nd | 1 of 9 (2.20) |
| GFTLNSYGIS | VIYSDGWRTFYGDSVK | GRAARTFDS | nd / nd / 4.85 | 2 of 9 (3.86) |
| GFTLNSYGIS | KIYSDGRRTFYGDNVK | GRAAGTWDS | nd / nd / nd | 1 of 9 (5.51) |
| GFTLNSYGIS | VIYSDGRITFYGDSVQ | GRAAGTTDS | nd / 4.64 / nd | 1 of 9 (3.68) |
| GTTLNSYGIS | VIYSDGRRTFYGDTVK | DRAAGTFDS | nd / 4.13 / nd | 0 of 9 |
| GFTLNSYGIS | VIYSWCRRTFYGDSVK | GRAAKTFDS | 4.58 / nd / nd | 0 of 9 |
| GFTLNSYGIS | VIYSDGRRTFYGDSVK | NRYAGTFCS | 1.59 / 1.74 / 2.20 | 0 of 9 |
| GFTLNSYGIS | VIMSDGRETFQGDSVK | GRAAGTFDS | nd / nd / nd | 0 of 9 |
| GFSLNSYGIS | VIYSDGRRTFYGDSVV | TRAAGTFDS | nd / nd / nd | 0 of 9 |
| GFTLNSYGIS | VIYSKGSRTFYGDSVK | YRAAGTFDS | nd / nd / nd | 0 of 9 |
| GFTLNSYGIS | VIYSDGRRCFYGDVVP | GRAAGTFDS | 3.66 / nd / nd | 1 of 9 (3.84) |
| GFTLNSYVIS | VIYSDGRRTFYPDSVK | HRAAGTFDS | 6.46 / 4.33 / nd | 1 of 9 (4.08) |
| GLTLNSCGIS | LIYSDGRRTFYGDSVK | GRAAGTFDS | nd / nd / 4.15 | 2 of 9 (4.27) |
| GFTLNSYGIS | VIYWDGRRTFYGQSVK | GRAAGTFDS | 2.52 / 2.36 / 3.00 | 3 of 9 (4.31) |
| GFTLNSYGIS | VIYSDGRRTFYGVSSK | GRAAGTFDL | 3.84 / 4.20 / 5.07 | 1 of 9 (3.77) |

3 of these entries, quoted again:

| CDR-H1 | CDR-H2 | CDR-H3 | replicates, log10 nM | control signals |
|---|---|---|---|---|
| GFTLNSYGIS | VIYSDGRRTFYGVSSK | GRAAGTFDL | 3.84 / 4.20 / 5.07 | 1 of 9 (3.77) |
| GFTLNSYGIS | VIRSDGRRTFYCDSVK | GRAAGTFDH | nd / 4.53 / nd | 2 of 9 (3.84) |
| GFTLNSYGIT | VIYSDGRRTFYGDSVY | GRAAGTFDI | nd / nd / nd | 1 of 9 (2.76) |

Parent in this assay: reference entry 0.65, copy in this library 4.11 (one replicate of three). Three control strains display no target. For library AAYL49, 15% of the pairings with them gave a signal, with a median of 4.06 and one signal in twenty below 2.83, so weak values seen in few replicates may be background. The control count says in how many pairings with the empty strains this scFv gave a signal, with their mean in brackets.

Data: MIT Lincoln Laboratory AlphaSeq set, Engelhart et al. 2022, doi:10.1038/s41597-022-01779-4, as distributed in FLAb.